Data reported in patent publication US20240216357A1 (SICHUAN HUIYU PHARMACEUTICAL CO., LTD., priority 2021, published 2024).

Protein sequences, listed by entry. Tags and fused reporters are not part of them.
UniProt Q12809, whole entry: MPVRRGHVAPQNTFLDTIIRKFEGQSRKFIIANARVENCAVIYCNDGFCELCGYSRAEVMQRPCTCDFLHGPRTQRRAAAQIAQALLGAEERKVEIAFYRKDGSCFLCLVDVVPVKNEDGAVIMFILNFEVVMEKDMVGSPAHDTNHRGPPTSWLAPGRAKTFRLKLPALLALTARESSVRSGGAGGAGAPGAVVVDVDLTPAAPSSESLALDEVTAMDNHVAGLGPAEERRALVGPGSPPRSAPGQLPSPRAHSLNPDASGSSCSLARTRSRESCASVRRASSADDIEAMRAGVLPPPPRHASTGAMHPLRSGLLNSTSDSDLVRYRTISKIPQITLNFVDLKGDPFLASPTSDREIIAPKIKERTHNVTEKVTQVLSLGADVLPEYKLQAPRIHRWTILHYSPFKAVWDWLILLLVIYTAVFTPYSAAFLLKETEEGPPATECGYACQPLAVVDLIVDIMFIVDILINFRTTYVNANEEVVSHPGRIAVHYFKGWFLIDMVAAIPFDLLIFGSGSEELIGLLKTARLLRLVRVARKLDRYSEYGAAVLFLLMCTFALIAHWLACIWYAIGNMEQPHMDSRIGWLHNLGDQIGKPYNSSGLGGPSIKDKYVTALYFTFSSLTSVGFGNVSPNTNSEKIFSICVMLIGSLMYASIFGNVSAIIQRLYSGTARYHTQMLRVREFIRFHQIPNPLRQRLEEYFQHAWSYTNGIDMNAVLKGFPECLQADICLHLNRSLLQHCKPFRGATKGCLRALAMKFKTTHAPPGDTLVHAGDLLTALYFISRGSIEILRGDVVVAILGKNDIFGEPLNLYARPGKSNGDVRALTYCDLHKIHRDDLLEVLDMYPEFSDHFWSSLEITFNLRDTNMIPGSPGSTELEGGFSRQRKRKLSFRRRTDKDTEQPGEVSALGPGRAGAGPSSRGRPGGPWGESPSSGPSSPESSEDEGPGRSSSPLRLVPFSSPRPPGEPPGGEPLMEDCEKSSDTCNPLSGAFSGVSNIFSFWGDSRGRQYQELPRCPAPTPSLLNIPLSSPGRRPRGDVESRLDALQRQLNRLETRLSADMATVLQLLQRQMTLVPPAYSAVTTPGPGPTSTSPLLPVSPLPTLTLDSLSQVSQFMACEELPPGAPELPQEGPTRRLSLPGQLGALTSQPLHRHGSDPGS

Legend:
NCI-H1417 cells = assay: In vitro cell proliferation detection (CellTiter-Glo, 7 days); type: cell-based
[1] = biological target: voltage-gated potassium ion channel hERG (Homo sapiens (Human), UniProt Q12809)
LSD1 = LSD1 (Homo sapiens (Human), UniProt O60341); assay: LSD1 enzyme activity detection (HTRF); type: biochemical; conditions: read-out: Inhibition of enzymatic activity of LSD1 IC50
Caco-2 cells = conditions: tested form: formate

Row | Compound | IC50 (NCI-H1417 cells; read-out: NCI-H1417 proliferation inhibition IC50) | IC50 [1] | IC50 (LSD1) | IC50 (NCI-H1417 cells; read-out: NCI-H1417 proliferation inhibition IC50, tested form: formate) | IC50 ([1]; tested form: formate) | IC50 (LSD1; HTRF, H3K4me1 substrate, tested form: formate) | Papp A→B (Caco-2 cells) | Papp B→A (Caco-2 cells) | efflux ratio (Caco-2 cells)
1 | N#Cc1ccc(-c2nc(N3CCC(N)CC3)cc(O)c2-c2ccc(F)c(O)c2)cc1F [Example 58, 4-(6-(4-aminopiperidin-1-yl)-3-(4-fluoro-3-hydroxyphenyl)-4-hydroxypyridin-2-yl)-2-fluorobenzonitrile] | 8.78 nM | > 30000 nM | 1 nM | – | – | – | – | – | –
2 | Cc1noc2cc(-c3sc(C(=O)N4C5CCC4CC(N)C5)cc3-c3ccc(C#N)c(F)c3)c(F)cc12 (stereo not drawn) | – | – | – | 0.52 nM | 2100 nM | 0.026 nM | 1.5 ×10⁻⁶ cm/s | 37.6 ×10⁻⁶ cm/s | 25.2

Where two headings read alike, the source gives them in different places.
